{"sequences": {"note": "Sequences of proteins named here, by UniProt entry; tags and fusion partners are left off. A change or cut given only in a name is not applied to a line headed by its entry.", "UniProt P08238": "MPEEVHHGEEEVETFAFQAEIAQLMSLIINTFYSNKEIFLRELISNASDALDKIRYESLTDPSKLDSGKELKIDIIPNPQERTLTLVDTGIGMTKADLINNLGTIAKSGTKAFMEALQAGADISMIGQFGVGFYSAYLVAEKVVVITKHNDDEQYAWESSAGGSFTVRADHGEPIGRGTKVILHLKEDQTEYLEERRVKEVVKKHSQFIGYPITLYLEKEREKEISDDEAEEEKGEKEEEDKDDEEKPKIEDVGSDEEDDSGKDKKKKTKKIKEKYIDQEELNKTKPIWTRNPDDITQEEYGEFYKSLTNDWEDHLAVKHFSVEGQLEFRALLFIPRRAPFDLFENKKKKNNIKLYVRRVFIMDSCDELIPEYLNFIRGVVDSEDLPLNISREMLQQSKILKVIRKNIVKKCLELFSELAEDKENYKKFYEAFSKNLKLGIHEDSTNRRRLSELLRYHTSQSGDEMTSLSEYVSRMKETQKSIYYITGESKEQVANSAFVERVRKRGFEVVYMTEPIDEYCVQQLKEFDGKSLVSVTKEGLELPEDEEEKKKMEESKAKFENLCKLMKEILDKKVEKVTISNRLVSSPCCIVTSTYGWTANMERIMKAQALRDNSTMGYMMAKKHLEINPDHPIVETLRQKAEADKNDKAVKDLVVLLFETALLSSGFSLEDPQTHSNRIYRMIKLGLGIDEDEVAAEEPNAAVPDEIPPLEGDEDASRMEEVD"}, "source": "ChEMBL document CHEMBL1156757", "about": "“Dihydroxyphenylisoindoline amides as orally bioavailable inhibitors of the heat shock protein 90 (hsp90) molecular chaperone” (J Med Chem, 2010)", "target": "Heat shock protein HSP90 (Homo sapiens, UniProt P07900+P08238)", "data": [{"molecule": "CCCNC(=O)C1c2ccccc2CN1C(=O)c1cc(Cl)c(O)cc1O", "note": "(stereo unspecified)", "values": [{"measurement": "IC50", "result": 1.5, "unit": "µM"}]}]}
